Measurements reported in ChEMBL document CHEMBL2157861, “Discovery of 4-morpholino-pyrimidin-6-one and 4-morpholino-pyrimidin-2-one-containing Phosphoinositide 3-kinase (PI3K) p110β isoform inhibitors through structure-based fragment optimisation” (Bioorg Med Chem Lett, 2012).

Amino acid sequences for entries named in this document (tags omitted). A change or cut given only in a name is not applied to a line headed by its entry.
UniProt P42338: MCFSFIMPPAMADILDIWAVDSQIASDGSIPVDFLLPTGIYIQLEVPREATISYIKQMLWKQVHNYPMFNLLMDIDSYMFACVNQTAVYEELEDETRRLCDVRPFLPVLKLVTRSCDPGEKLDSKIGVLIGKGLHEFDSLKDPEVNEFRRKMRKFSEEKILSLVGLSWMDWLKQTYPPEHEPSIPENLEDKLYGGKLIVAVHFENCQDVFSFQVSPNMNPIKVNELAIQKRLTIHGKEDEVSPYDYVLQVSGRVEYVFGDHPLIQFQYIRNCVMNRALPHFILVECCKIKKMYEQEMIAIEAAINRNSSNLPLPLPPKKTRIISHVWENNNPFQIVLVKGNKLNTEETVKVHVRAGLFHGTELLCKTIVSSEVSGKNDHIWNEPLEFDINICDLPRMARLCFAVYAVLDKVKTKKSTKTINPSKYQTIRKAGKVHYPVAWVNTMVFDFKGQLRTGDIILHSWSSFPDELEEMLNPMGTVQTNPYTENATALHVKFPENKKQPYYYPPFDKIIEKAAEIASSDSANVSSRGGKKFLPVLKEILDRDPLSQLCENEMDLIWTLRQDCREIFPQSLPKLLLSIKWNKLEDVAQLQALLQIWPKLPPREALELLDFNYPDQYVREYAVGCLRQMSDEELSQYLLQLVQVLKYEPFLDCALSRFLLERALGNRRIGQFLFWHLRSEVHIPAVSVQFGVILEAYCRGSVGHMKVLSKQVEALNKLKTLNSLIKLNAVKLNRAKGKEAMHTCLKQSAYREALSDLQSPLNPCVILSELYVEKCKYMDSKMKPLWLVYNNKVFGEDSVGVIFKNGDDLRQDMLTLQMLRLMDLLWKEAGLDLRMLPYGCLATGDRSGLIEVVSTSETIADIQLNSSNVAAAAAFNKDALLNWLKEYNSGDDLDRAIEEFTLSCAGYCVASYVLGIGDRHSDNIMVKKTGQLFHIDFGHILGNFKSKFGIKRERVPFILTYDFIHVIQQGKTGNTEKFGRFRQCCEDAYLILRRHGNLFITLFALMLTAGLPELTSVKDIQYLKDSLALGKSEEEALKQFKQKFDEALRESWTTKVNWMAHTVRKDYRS

Target: Phosphatidylinositol 4,5-bisphosphate 3-kinase catalytic subunit beta isoform (Homo sapiens, UniProt P42338)
Assay: Inhibition of human recombinant His6-tagged PI3K p110beta expressed in baculovirus using DiC8-PI(4,5)P2 as substrate after 20 mins by AlphaScreen assay
Method in brief: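 Values are the mean of at least two experiments. Experimental error was within 20% of the value.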

IC50: 49 nM
SMILES: Cc1cc(C(C)Nc2ccccc2)c2nc(N3CCOCC3)cc(=O)n2c1 (stereo unspecified)
